# Ab-14 light chain CDR variants: yeast mating affinities

All variants were tested on one target, the spike HR2 peptide PDVDLGDISGINAS (SARS-CoV-2).

Each scFv is VH, a (GGGGS)3 linker, VL, as in the parent Ab-14, and differs from it in the CDRs of the light chain only.
VH: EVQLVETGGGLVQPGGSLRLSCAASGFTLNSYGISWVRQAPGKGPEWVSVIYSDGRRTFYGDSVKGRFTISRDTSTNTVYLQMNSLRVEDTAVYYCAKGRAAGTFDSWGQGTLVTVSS
VL: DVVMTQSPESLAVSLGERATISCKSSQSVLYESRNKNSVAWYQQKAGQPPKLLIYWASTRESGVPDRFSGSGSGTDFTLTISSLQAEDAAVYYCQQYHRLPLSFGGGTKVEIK

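The parent was found by panning a naive human phage display library on the peptide. The variants were designed computationally from a first round of random CDR variants and then made and measured. Several design methods are mixed in this list. Affinity was read by AlphaSeq, a pooled yeast mating assay with surface-displayed partners. The frequency of each diploid, read from paired DNA barcodes, reflects how well the two displayed proteins bind. Each replicate has its own calibration line, from reference interactions of the BCL2 family. There are six technical replicates.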

The parent's light chain CDRs are KSSQSVLYESRNKNSVA, WASTRES, QQYHRLPLS; each variant's own CDRs replace them letter for letter.
Variants here have more than six changes.
Each Kd is an estimate from the mating assay, the geometric mean of the replicates in which the pair was seen; lower is stronger.
The authors' rule: three or more of the six replicates give a measured affinity, fewer mean a poor binder.
Values of this round are not directly comparable with the first-round values of the same sequences.
Nonspecific signal, from three strains lacking the peptide, appeared in 4% of pairings of all light chain designs, centred on 430 nM (5% of these signals below 38 nM); values are not corrected for it.
The parent sequence was in this pool as ten entries: three were never detected, three once, and four in most replicates, with averages from 2.2 nM to 240 nM.

KISMLHNQTFNQSNNVA, EMATREK, QQYNRLPLS: 52 nM (6 of 6 replicates).
HISQSVGMTSRNRNSVA, ENSTRED, QQYDRLPLS: 120 nM (6 of 6 replicates).
KLSISYLFESLEKNSIA, ENSTREN, QHYHRLPLS: 100 nM (2 of 6 replicates).
KIGGTLNTLMHQKNNVA, DLVMREM, QQYHRLPLS: 2.6 nM (6 of 6 replicates).
HVHSLMAIRQEIQNNVA, DAQNRNA, QQYFRLPLA: 9.0 nM (6 of 6 replicates).
KLSNSVWMESRNKNNVA, EASKRES, QQYHRLPLS: 490 pM (6 of 6 replicates).
MVTQMAMTGMKNKRSVA, NATTREP, QQYHRLPLI: 8.6 nM (6 of 6 replicates).
MLSDLVKMGVRNTNNVA, DNSTRGS, QQYDRLPLS: 110 nM (6 of 6 replicates).
MISQVLNTLTRTGNNVA, DLQERED, QQYFRLPLS: 16 nM (3 of 6 replicates).
TLGDVTRMESNKKSSIA, DMSNRAA, QQYHRLPIS: 5.2 nM (6 of 6 replicates).
TLSQSMDMTSRNVNSVA, DLTERGN, QQYHRLPLS: 1.2 nM (6 of 6 replicates).
HISQSVGMTSFNKNSVA, ENSTREA, QQYDRLPLS: 100 nM (5 of 6 replicates).
KLQQSKEYESRWHNSVA, HASVRES, QQYHRLPLS: 7.5 nM (6 of 6 replicates).
SLHHYFLGENGMRGSVA, NATIRDQ, QQYFRLPLF: 1.5 nM (6 of 6 replicates).
HLGGLMTWESKARNSVA, QQNTRAE, QQYHRLPLS: 3.7 nM (6 of 6 replicates).
KLYDDAASRVQDAENIA, EKTESLQ, QQYHRLPLS: 24 nM (6 of 6 replicates).
KHSQSVLLENRNKNSVA, RASTREC, QQYHHLPLF: 75 nM (6 of 6 replicates).
RIDAYPPIQGNNIDSIA, ENAITLD, QQYAQLPLS: 94 nM (6 of 6 replicates).
SISMLLNFELKIGNNVA, QMETRVN, QQYDRLPLS: 98 nM (5 of 6 replicates).
MLSQMWALGSKVSNSVA, QASMRFN, QQYHRLPLI: 510 nM (5 of 6 replicates).
KLSQTSGMEHVNRNSVA, ELVTRMS, QQYNRLPLS: 13 nM (6 of 6 replicates).
KVSMSQLYEWRNFNSVA, NASTREE, QQYHRLPLS: 620 pM (6 of 6 replicates).
TISQVMNTLTREGNNVA, DLQEREK, QQYFRLPLT: 14 nM (6 of 6 replicates).
TISQMHSSFSQTINNVA, EVSTREK, QQYDRLPLA: 1.1 nM (6 of 6 replicates).
HLEMKVGGVQAVGYSVA, HASQRQA, QQYYQLPLT: 3.1 nM (6 of 6 replicates).
KFMYSLEYQMHEQNNIA, HGNIKTV, QQYFRLPIY: 1.9 nM (6 of 6 replicates).
KVSEFMRGLMKKTDSIA, DNETRGA, QQYDRLPLS: 130 nM (6 of 6 replicates).
QLSSITGHYSMIKNNVA, EMETREN, QQYDRLPLS: 2.3 nM (6 of 6 replicates).
ALGDVTRMESNKKNSIA, DMSNRED, QQYHRLPLS: 420 pM (6 of 6 replicates).
MISQLFNMGQFAINSVA, QASQRNA, QQYDRLPLM: 57 nM (5 of 6 replicates).
MLNDAYQGDIAQNQNVA, SADVLTH, QQYNKLPLS: 1.0 nM (6 of 6 replicates).
QLLMATMQETYNRNSVA, HAETRED, QSYHRLPLS: 2.1 nM (6 of 6 replicates).

2 of these entries, quoted again:

For KLYDDAASRVQDAENIA, EKTESLQ, QQYHRLPLS, the assay gave 24 nM (6 of 6 replicates).
For KVSMSQLYEWRNFNSVA, NASTREE, QQYHRLPLS, the assay gave 620 pM (6 of 6 replicates).

From the AlphaSeq antibody data of Li et al. 2023 (doi:10.1038/s41467-023-39022-2), copy in the FLAb collection.